Source: paper PMC10979493
pIC50: −log10 of the molar value.

Chains of the proteins cited; added tags and fusions are not shown. Residues count along the entry.
UniProt P40763, 586-685 I634A limits assumed: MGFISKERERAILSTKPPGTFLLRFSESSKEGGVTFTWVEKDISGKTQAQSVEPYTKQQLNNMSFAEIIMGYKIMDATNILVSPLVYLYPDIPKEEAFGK
UniProt P40763, 586-685 I659A limits assumed: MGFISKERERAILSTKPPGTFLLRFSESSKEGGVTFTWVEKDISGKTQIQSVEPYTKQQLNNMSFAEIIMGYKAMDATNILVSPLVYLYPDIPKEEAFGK
UniProt P40763, 586-685 N647A limits assumed: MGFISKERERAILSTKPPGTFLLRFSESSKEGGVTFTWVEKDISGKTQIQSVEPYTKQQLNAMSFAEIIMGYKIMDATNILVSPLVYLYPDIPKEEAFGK
UniProt P10635, whole entry: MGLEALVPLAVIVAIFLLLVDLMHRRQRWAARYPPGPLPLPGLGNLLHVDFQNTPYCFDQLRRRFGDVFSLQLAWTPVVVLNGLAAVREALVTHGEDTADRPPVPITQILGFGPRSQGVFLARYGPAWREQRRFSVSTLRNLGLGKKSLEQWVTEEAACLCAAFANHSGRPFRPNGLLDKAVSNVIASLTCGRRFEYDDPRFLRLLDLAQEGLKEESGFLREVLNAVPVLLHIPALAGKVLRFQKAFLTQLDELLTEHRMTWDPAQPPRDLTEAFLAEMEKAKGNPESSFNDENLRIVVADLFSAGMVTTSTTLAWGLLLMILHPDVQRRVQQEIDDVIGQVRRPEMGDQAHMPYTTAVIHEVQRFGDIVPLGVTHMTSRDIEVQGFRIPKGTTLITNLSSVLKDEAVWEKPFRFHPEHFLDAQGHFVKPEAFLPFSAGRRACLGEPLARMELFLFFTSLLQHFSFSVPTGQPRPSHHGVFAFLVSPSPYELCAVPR
UniProt P11712, whole entry: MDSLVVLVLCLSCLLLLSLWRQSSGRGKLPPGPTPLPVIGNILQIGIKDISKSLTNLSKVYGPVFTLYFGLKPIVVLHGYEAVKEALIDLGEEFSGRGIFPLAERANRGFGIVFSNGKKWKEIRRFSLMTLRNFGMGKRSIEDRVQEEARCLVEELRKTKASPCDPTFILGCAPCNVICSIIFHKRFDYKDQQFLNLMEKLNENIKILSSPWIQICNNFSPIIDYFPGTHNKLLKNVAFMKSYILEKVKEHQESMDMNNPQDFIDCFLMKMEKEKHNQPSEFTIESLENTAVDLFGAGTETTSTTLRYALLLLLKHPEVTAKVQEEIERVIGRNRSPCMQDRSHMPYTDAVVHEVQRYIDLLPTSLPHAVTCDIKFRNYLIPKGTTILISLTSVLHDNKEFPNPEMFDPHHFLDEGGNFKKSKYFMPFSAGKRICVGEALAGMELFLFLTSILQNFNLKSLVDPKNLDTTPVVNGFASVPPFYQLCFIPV

How the values were obtained:
[1] = tested on: STAT3 Tyr705 and Ser727 phosphorylation; assay: Western blot of STAT3 phosphorylation; settings: Capan-2, HPAC and BxPC-3 cells
Protocol: (§1) Pancreatic cancer cells were lysed in RIPA buffer supplemented with 1 mM phenylmethylsulfonyl fluoride (PMSF), a proteinase inhibitor cocktail and a phosphatase inhibitor cocktail (Sigma). Lysates were separated by 8–12% sodium dodecyl sulfate-polyacrylamide gel electrophoresis (SDS-PAGE) and transferred to nitrocellulose. The blots were probed with specific antibodies followed by a secondary antibody, and then membranes were examined by the LI-COR Odyssey infrared imaging system (LI-COR Biotechnology, Lincoln NE). The antibodies used and their technical information are listed in Supplementary Table S2.

[2] = tested on: AsPC-1 cells; assay: Orthotopic pancreatic cancer model (AsPC-1); settings: high concentration group
[3] = tested on: STAT3 Tyr705 and Ser727 phosphorylation; assay: Western blot of STAT3 phosphorylation in TNBC and PTCL cells; settings: MDA-MB-231 and SUDHL-1 cells
Protocol: as §1

[4] = Liver microsome stability, human
[5] = target: STAT3-SH2D mutant I634A (Homo sapiens, UniProt P40763, I634A); assay: MST binding to STAT3-SH2 mutant I634A
From the text: (§2) STAT1 (amino acid residues 127–716), STAT2 (amino acid residues 138–702), STAT3 (amino acid residues 127–722), STAT4 (amino acid residues 133–705), STAT5B (amino acid residues 136–703) and STAT6 (amino acid residues 113–658) were cloned into the pET28A vector. STAT3-SH2 (amino acid residues 586–685) and the mutants of the STAT3-SH2 produced by site-directed mutagenesis were also cloned into the pET28A vector. All recombinant human fusion proteins were expressed in E. coli BL21 (DE3). Then, according to different induction conditions, the protein expression was induced. During the induction of the expression of STAT3-SH2 and all the mutants, STAT1, STAT2, STAT3 and STAT6, when the OD value reached about 0.6–1.0, the E. coli was transferred to 22 °C and 0.5 mM Isopropyl β-D-1-thiogalactopyranoside (IPTG) was added. For the expression of STAT4 and STAT5B when the OD value reached about 0.5–0.6, the E. coli was transferred to 30 °C for 2.5–3 h and 0.2 mM IPTG was added.
(§3) Microscale thermophoresis (MST) was conducted as previously described.[28] Binding affinities of YY002, Stattic against purified STAT3^127–722 and STAT3-SH2 protein or YY002 against STAT3-SH2 WT and mutants were measured by a Monolith NT.115 (Nanotemper Technologies). […] The samples were then loaded into premium capillaries (NanoTemper Technologies) and measured at 25 °C using 20%–40% LED power and medium MST power. […]

[6] = Plasma stability, mouse
[7] = tested on: shSTAT3 PDAC cells (Capan-2, PANC-1); assay: Cell viability in shSTAT3 knockdown PDAC cells; settings: 72 h
Protocol: The shRNAs for silencing STAT3 are listed in Supplementary Table S1. ShRNAs were respectively inserted into pLKO.1 vector, then were cotransfected into 293T cells with the packing plasmids pMD2G and pXPAX2, using Lipofectamine 2000 (Thermo Fisher Scientific, Beijing, China). After transfection for 72 h, the harvested lentiviruses were infected into tumor cell lines and puromycin was added to screen for stable STAT3 knockdown cells. Finally, the knockdown efficiency was detected by Western blot. […]
acute myeloid leukemia cell line (KG1), human atrial fibroblast (HAF), human […]
umbilical vein endothelial cell line (HUVEC), human embryonic kidney cell line […]
(HEK293T) was purchased from Cell Bank/Stem Cell Bank of the Chinese Academy […]
of Sciences and American Type Culture Collection (ATCC). Capan-2, PANC-1 and […]
HEK293T were cultured in Dulbecco’s Modified Eagle’s Medium (DMEM) supplemented with 10% fetal bovine serum (FBS) and 1% penicillin-streptomycin, and […]
additional 2.5% horse serum was added in the medium of MIA PaCa-2; AsPC-1, BxPC- […]
3, PC3 and KG1 were cultured in RPMI 1640 medium supplemented with 10%-20% […]
FBS and 1% penicillin-streptomycin; HPAC was cultured in Dulbecco's Modified […]
Eagle Medium/Nutrient Mixture F-12 medium (DMEM/F-12), SW1990 was cultured […]
Cell viability was measured by MTS assay following the manufacturer ’s instructions. […]

[8] = target: STAT3-SH2D mutant I659A (Homo sapiens, UniProt P40763, I659A); assay: MST binding to STAT3-SH2 mutant I659A
From the text: as §2, §3

[9] = target: CYP2D6 (Homo sapiens, UniProt P10635); assay: CYP2D6 inhibition; settings: safety profiling
[10] = tested on: other STAT family proteins; assay: MST binding to other STAT family proteins
From the text: as §2, §3

[11] = target: CYP2C9 (Homo sapiens, UniProt P11712); assay: CYP2C9 inhibition; settings: safety profiling
[12] = Liver microsome stability, mouse
[13] = tested on: MDA-MB-231 tumor; assay: MDA-MB-231 xenograft model
[14] = Liver microsome stability, rat
[15] = target: SH2-N647A (Homo sapiens, UniProt P40763, N647A); assay: MST binding to STAT3-SH2 mutant N647A
From the text: as §2, §3

SMILES: Cn1c(C(=O)N2CCN(Cc3ccc(OCC(F)(F)F)cc3)CC2)cc2ccc(Oc3cnc(-c4nc(-c5ccc(C(F)(F)F)cc5)no4)cn3)cc21
- Inhibition of STAT3 phosphorylation [1]: concurrent inhibition of STAT3 Tyr705 and Ser727 phosphorylation
- Mice survived [2]: 60%
- Inhibition of STAT3 phosphorylation [3]: potently inhibited STAT3 Tyr705 and Ser727 phosphorylation
- Liver Microsomes t1/2 [4]: > 2 h
- Binding to mutant [5]: did not bind
- Plasma t1/2 [6]: > 2 h
- Effect on cell viability upon STAT3 knockdown [7]: loss of YY002 treatment efficacy upon STAT3 knockdown
- Binding to mutant [8]: did not bind
- pIC50 [9]: < 4.60
- Binding to other STAT family proteins [10]: no significant binding affinities
- pIC50 [11]: < 4.60
- Liver Microsomes t1/2 [12]: > 2 h
- Antitumor efficacy compared to BBI608 ([13]; TNBC model, oral administration): superior antitumor efficacy compared to BBI608
- Antitumor efficacy in vivo ([13]; orally): significant regression
- Liver Microsomes t1/2 [14]: > 2 h
- Binding affinities (nM) [15]: did not bind
